{
  "sequences": {"note": "The chains behind the UniProt entries cited, without tags or fusion partners.", "UniProt Q92847, whole entry": "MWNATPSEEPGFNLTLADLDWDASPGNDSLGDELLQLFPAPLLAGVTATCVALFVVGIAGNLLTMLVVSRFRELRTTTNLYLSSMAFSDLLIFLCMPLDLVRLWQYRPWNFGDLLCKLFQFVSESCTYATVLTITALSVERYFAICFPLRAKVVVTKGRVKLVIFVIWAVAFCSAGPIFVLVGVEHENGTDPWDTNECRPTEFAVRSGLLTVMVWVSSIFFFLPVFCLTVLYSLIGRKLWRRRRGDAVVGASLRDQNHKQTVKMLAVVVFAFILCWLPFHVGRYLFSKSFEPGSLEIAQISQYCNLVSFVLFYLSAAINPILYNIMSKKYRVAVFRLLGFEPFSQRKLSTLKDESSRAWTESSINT"},
  "source": "patent US8871706B2",
  "about": "“Method for inhibiting inflammation and pre-inflammatory cytokine/chemokine expression using a ghrelin analogue” (Ipsen Pharma S.A.S., priority 2007, dated 2014)",
  "target": "T1, human recombinant GHS receptor (Homo sapiens, UniProt Q92847)",
  "T1 construct": "The full length human GHS-R was subcloned into the mammalian expression vector pcDNA 3.1; expressed in transfected cells; membranes prepared by homogenization",
  "assay": "GHS-Receptor Binding Assay",
  "conditions": "(125I)ghrelin, membranes of CHO-K1 cells expressing hGHS-R, 60 minute incubation at 4° C.",
  "data": [
    {"substance": "H-Gly-Ser-Ser-Phe-Leu-Ser-Pro-Glu-His-Gln-Arg-Val-Gln-Gln-Arg-Lys-Glu-Ser-Lys-Lys-Pro-Pro-Ala-Lys-Leu-Gln-Pro-Arg-NH2 [hGhrelin(1-28)-NH2, reference compound]", "values": [
      {"measurement": "Ki", "value": 0.0242, "unit": "µM"}
    ]}
  ]
}
